Test results: US20260384421A1, “NOVEL COMPOUNDS THAT CAN BE USED AS THERAPEUTIC AGENTS” (published 2026)
Where two headings read alike, the source gives them in different places.

Experiments:
[1] = test system: NB-4 cells; assay: alamarBlue proliferation assay with NB-4 cells; settings: read-out: Activity on NB-4: IC50, RPMI 1640 medium, 10% FBS
Excerpt: (§1) These hyperproliferative processes can be benign or malignant and include hyperplasia, neoplasia, cancer and pre-cancerous lesions, and metastases. The antiproliferative activities of compounds falling under general formula (I) were investigated on human primary epidermal keratinocytes (HPEK) and human, murine and canine cell lines derived from hyperproliferative tissue or different cancer types, including MDA-MB-231, ZR-75-30, HCC-1395, HCC-1937, and T-47D all originating from cancer of the breast, JURKAT, RPMI-8402, LOUCY, TANQUE, REC-1, HL-60, NB-4 all originating from different types of blood cancer including lymphoma and leukemia of T-cells, B-cells and myeloid cells, TT originating from cancer of the neuroendocrine system, HeLa originating from cancer of the cervix, 23132/87, SW-948, and HCT-116 all originating from cancer of the gastrointestinal tract including stomach and colon, BHY originating from cancer of the mucosal epithelium, A-431 originating from cancer of the skin, HEP-G2 originating from cancer of the liver, NCI-H460 and A-549 both originating from cancer of the lung, PANC-1 originating from cancer of the pancreas, U-87 MG originating from cancer of the brain, A-375 and RVH-421 both originating from cancer of melanocytes, SW-1353 originating from cancer of bone-derived chondrocytes, C2C12 a mouse cell line originating from hyperproliferative muscle progenitor cells, LL/2 a mouse cell line originating from cancer of the lung, CF21.T a dog cell line originating from cancer of the connective tissue. To this end, according cells were seeded into 96-well plates (CORNING #3598) suitable for fluorescence assays at following initial cell numbers: 1000 cells per well for HPEK; 3000 cells per well for MDA-MB-231, 8000 cells per well for ZR-75-30, 1500 cells per well for HCC-1395, 1500 cells per well for HCC-1937, 3000 cells per well for T-47D, 1500 cells per well for JURKAT, 5000 cells per well for RPMI-8402, 9000 cells per well for LOUCY, 1500 cells per well for TANQUE, 9000 cells per well for REC-1, 1000 cells per well for HL-60, 1000 cells per well for NB-4, 9000 cells per well for TT, 2000 cells per well for HeLa, 2000 cells per well for 23132/87, 9000 cells per well for SW-948, 700 cells per well for HCT-116, 1500 cells per well for BHY, 700 cells per well for A-431, 1500 cells per well for HEP-G2, 500 cells per well for NCI-H460, 1000 cells per well for A-549, 1500 cells per well for PANC-1, 2500 cells per well for U-87 MG, 700 cells per well for A-375, 1500 cells per well for RVH-421, 2000 cells per well for SW-1353, 500 cells per well for C2C12, 500 cells per well for LL/2, and 3000 cells per well for CF21.T. In a volume of 90 μL per well of culture medium the cells were treated with compounds at indicated final concentrations by adding 10 μL per well of 10× compound working solutions from 1:100 pre-diluted 1000× compound DMSO stock-solutions in H2O (Water For Injection, WFI, Fisher Scientific, Gibco™ #A12873) or with the empty carrier DMSO (AppliChem, #A3672) at 0.1% v/v as control yielding a final volume of 100 μL per well. At day 5 after starting the treatments the cells were subjected to the alamarBlue® Proliferation Assay (Bio-Rad Serotec GmbH, BUF012B) according to the protocol of the manufacturer. The readout was taken with a multi-well plate-reader (Tecan Spark®) in the fluorescence mode with applying a filter for excitation at 560 nm (band width 10 nm) and for emission at 590 nm (band width 10 nm). Treatment for maximum proliferation inhibition with the commercial cytotoxic compound (S)-(+)-camptothecin (Fluorochem #M01564) at a concentration of 10 μM was included on each plate for assay quality control. Some of the test compounds of the present invention may have been obtained and applied as their salt forms.
(§2) The assays were performed in duplicate or more replicates of independent single experiments each containing a three- to six-fold replicate for every condition. […]

[2] = test system: MDA-MB-231 cells; assay: alamarBlue proliferation assay with MDA-MB-231 cells (glucose-free Leibovitz's L-15 medium)
Excerpt: as §1, §2

[3] = test system: HCT-116 cells; assay: alamarBlue proliferation assay with HCT-116 cells; settings: read-out: Activity on HCT-116: IC50, McCoy's 5A medium, 10% FBS
Excerpt: as §1, §2

[4] = test system: A-549 cells; assay: alamarBlue proliferation assay with A-549 cells; settings: read-out: Activity on A-549: IC50, DMEM medium, 10% FBS
Excerpt: as §1, §2

[5] = test system: HEP-G2 cells; assay: alamarBlue proliferation assay with HEP-G2 cells; settings: read-out: Activity on HEP-G2: IC50, RPMI 1640 medium, 10% FBS
Excerpt: as §1, §2

[6] = test system: HPEKp cells; assay: proliferation assay with human epidermal keratinocyte progenitors (HPEKp), selectivity versus MDA-MB-231
Excerpt: as §1, §2

[7] = test system: TANQUE cells; assay: alamarBlue proliferation assay with TANQUE cells; settings: read-out: Activity on TANOUE: IC50, RPMI 1640 medium, 10% FBS
Excerpt: as §1, §2

[8] = test system: LL/2 cells; assay: alamarBlue proliferation assay with LL/2 cells; settings: read-out: Activity on LL/2: IC50; LL/2 murine Lewis lung carcinoma cells, DMEM medium, 10% FBS
Excerpt: as §1, §2

[9] = test system: BHY cells; assay: alamarBlue proliferation assay with BHY cells; settings: read-out: Activity on BHY: IC50, DMEM medium, 10% FBS
Excerpt: as §1, §2

[10] = read-out: Activity (MDA), MDA-MB-231 cells, antiproliferative activity, class by IC50
[11] = read-out: Activity on MDA-MB-231 (IC50), glucose-free Leibovitz's L-15, 10% FBS, day 5, alamarBlue
[12] = read-out: Activity (HPEK), HPEK cells (HPEKp), antiproliferative activity, class by IC50
[13] = read-out: Activity (MDA): antiproliferative activity on MDA-MB-231 cells, IC50 category, MDA-MB-231 cells cultivated in glucose-free Leibovitz's L-15 medium
[14] = read-out: Activity (HPEK): antiproliferative activity on HPEK cells, IC50 category, HPEK cells cultivated in CnT-Prime medium

| Compound | IC50 [2, 10] [µM] | IC50 [2, 11] [µM] | IC50 [4] [µM] | IC50 [5] [µM] | IC50 [6, 12] [µM] | further results |
| --- | --- | --- | --- | --- | --- | --- |
| O=C1CCC(c2ccc(Oc3ccc(C(=O)N4CCN(Cc5ccccc5)CC4)cc3)c(CO)c2)CC1 | < 1 | ≤ 0.2 | ≤ 0.2 | ≤ 1 | < 1 | IC50 [1]: ≤ 1 µM; IC50 [3]: ≤ 1 µM; IC50 [7]: ≤ 1 µM; IC50 [8]: ≤ 5 µM; IC50 [9]: ≤ 1 µM |
| COC1CCC(c2ccc(Oc3ccc(C(=O)N4CC5(CN(Cc6ccc(Cl)cc6)C5)C4)nc3)c(CO)c2)CC1 (centres unmarked) | < 5 | ≤ 5 | ≤ 5 | ≤ 5 | < 10 | – |
| O=Cc1cc(C2CCCCC2)ccc1Oc1ccc(C(=O)N2CCN(Cc3ccccc3)CC2)cc1 | < 1 | ≤ 1 | ≤ 5 | ≤ 5 | < 5 | – |
| COc1ccc(CN2CCN(C(=O)c3ccc(Oc4cc(Cl)c(C5CCC(OC)CC5)c(Cl)c4O)cn3)CC2)cc1 (centres unmarked) | – | – | ≤ 5 | ≤ 5 | – | – |
| O=C(c1ccc(Oc2ccc(C3CCC4(CC3)OCCO4)cc2CO)nc1)N1CCN(Cc2ccccc2)CC1 | – | – | – | – | – | IC50 [1]: ≤ 0.2 µM; IC50 [3]: ≤ 0.2 µM; IC50 [7]: ≤ 0.2 µM; IC50 [8]: ≤ 5 µM; IC50 [9]: ≤ 0.2 µM |
| O=C(c1ccc(Oc2ccc(C3CCCCC3)cc2CO)cc1)N1CC2(CN(Cc3ccc(Cl)cc3)C2)C1 | – | ≤ 5 | ≤ 5 | ≤ 5 | – | – |
| O=C(c1ccccc1)N1CCN(C(=O)c2ccc(Oc3ccc(C4CCC5(CC4)OCCO5)cc3CO)cc2)CC1 | < 5 | ≤ 5 | ≤ 5 | ≤ 5 | < 10 | – |
| Cc1ccc(S(=O)(=O)N2CC3CN(C(=O)c4ccc(Oc5ccc(C6CCC7(CC6)OCCO7)cc5CO)cc4)CC3C2)cc1 (centres unmarked) | – | ≤ 20 | – | ≤ 20 | – | – |
| COc1ccc(CN2CC3(C2)CN(C(=O)c2ccc(Oc4ccc(C5CCC6(CC5)OCCO6)cc4C=O)cc2)C3)cc1 | – | ≤ 5 | – | – | – | – |
| COc1ccc(CN2CC3(C2)CN(C(=O)c2ccc(Oc4ccc(C5CCC(OC)CC5)cc4CO)cc2)C3)cc1 (centres unmarked) | < 1 | ≤ 1 | ≤ 5 | ≤ 5 | < 10 | IC50 [1]: ≤ 5 µM; IC50 [3]: ≤ 5 µM; IC50 [9]: ≤ 5 µM |
| O=C(c1ccc(Oc2ccc(C3CCCCC3)cc2CO)cn1)N1CC2(CN(Cc3ccc(Cl)cc3)C2)C1 | – | ≤ 5 | – | ≤ 5 | – | – |
| COC1CCC(c2ccc(Oc3ccc(C(=O)N4CC5(CN(Cc6ccccc6)C5)C4)cc3)c(CO)c2)CC1 (centres unmarked) | < 5 | ≤ 5 | ≤ 5 | ≤ 5 | < 10 | – |
| COC1CCC(c2ccc(Oc3ccc(C(=O)N4CC5(CN(Cc6ccc(Cl)cc6)C5)C4)cc3)c(CO)c2)CC1 (centres unmarked) | < 1 | ≤ 1 | ≤ 1 | ≤ 1 | < 10 | – |
| Cc1ccc(S(=O)(=O)N2CCN(C(=O)c3ccc(Oc4ccc(C5CCC6(CC5)OCCO6)cc4C=O)cc3)CC2)cc1 | – | ≤ 5 | – | – | – | – |
| COc1ccccc1CN1CCN(C(=O)c2ccc(Oc3ccc(C4CCC5(CC4)OCCO5)cc3C=O)cc2)CC1 | – | – | – | – | – | IC50 [2, 13]: < 1 µM; IC50 [6, 14]: < 5 µM |
| COC1CCC(c2c(Cl)cc(Oc3ccc(C(=O)N4CCN(Cc5ccc(Cl)cc5)CC4)nc3)c(O)c2Cl)CC1 (centres unmarked) | – | – | ≤ 5 | ≤ 5 | – | – |
| O=C(c1ccc(Oc2ccc(C3CCCCC3)cc2CO)cc1)N1CC2(CN(Cc3ccccc3)C2)C1 | < 5 | ≤ 5 | – | – | < 10 | – |
| O=Cc1cc(C2CCCCC2)ccc1Oc1ccc(C(=O)N2CC3(CN(Cc4ccc(Cl)cc4)C3)C2)cc1 | – | ≤ 5 | ≤ 5 | ≤ 5 | – | – |
| C#CCN1CCN(C(=O)c2ccc(Oc3ccc(C4CCCCC4)cc3CO)cc2)CC1 | – | ≤ 20 | – | – | – | – |
| O=C(c1ccc(Oc2ccc(C3CCC4(CC3)OCCO4)cc2CO)cc1)N1CCN(CCO)CC1 | – | ≤ 20 | – | – | – | – |
| COc1ccc(CN2CC3(C2)CN(C(=O)c2ccc(Oc4ccc(C5CCCCC5)cc4CO)cc2)C3)cc1 | < 1 | ≤ 1 | ≤ 1 | ≤ 1 | < 5 | – |
| C#CCN1CCN(C(=O)c2ccc(Oc3ccc(C4CCC(=NO)CC4)cc3CO)cc2)CC1 (centres unmarked) | – | ≤ 5 | – | – | – | IC50 [2, 13]: < 5 µM; IC50 [6, 14]: > 10 µM |
| O=C(c1ccc(Oc2ccc(C3CCCCC3)cc2CO)cn1)N1CCN(Cc2ccccc2)CC1 | < 1 | – | ≤ 0.2 | ≤ 1 | < 10 | IC50 [9]: ≤ 5 µM |
| CC(=O)N1CCN(C(=O)c2ccc(Oc3ccc(C4CCCCC4)cc3CO)cc2)CC1 | – | ≤ 20 | – | – | – | – |
| COc1ccc(CN2CC3(C2)CN(C(=O)c2ccc(Oc4ccc(C5CCC(OC)CC5)cc4CO)cn2)C3)cc1 (centres unmarked) | < 5 | ≤ 5 | – | – | < 10 | – |
| O=Cc1cc(C2CCCCC2)ccc1Oc1ccc(C(=O)N2CCN(Cc3ccc(Cl)cc3)CC2)cc1 | < 1 | ≤ 0.2 | ≤ 0.2 | ≤ 0.2 | < 5 | – |
| COC1CCC(c2ccc(Oc3ccc(C(=O)N4CCN(Cc5ccc(Cl)cc5)CC4)nc3)c(O)c2)CC1 (centres unmarked) | – | – | ≤ 1 | ≤ 1 | – | – |
